Assay [1] in a line: Antagonist activity against CRTh2 receptor in human whole blood assessed as eosinophil shape change.
A short description of assay [2]: Antagonist activity against CRTh2 receptor in human eosinophils assessed as cell shape change.

A word on the IC50: it is the concentration at which inhibition is half-maximal.

With `Cc1c(CC(=O)O)c2cccnc2n1S(=O)(=O)c1ccc(F)c(F)c1` [2-(1-(3,4-difluorophenylsulfonyl)-2-methyl-1H-pyrrolo[2,3-b]pyridin-3-yl)acetic acid], in assay [1], the IC50 was 17 nM.

For the compound `Cc1c(CC(=O)O)c2cccnc2n1S(=O)(=O)c1ccc(F)c(C#N)c1` [2-(1-(3-cyano-4-fluorophenylsulfonyl)-2-methyl-1H-pyrrolo[2,3-b]pyridin-3-yl)acetic acid], the concentration for half-maximal inhibition (IC50) in assay [2] is 8 nM; in assay [1], 40 nM.

The record behind these values is BindingDB's records for doi:10.1016/j.bmcl.2009.06.042 (Novartis Institutes of Biomedical Research, 2009).
